Values quoted from earlier work in patent US20070072181A1 (priority 2003, published 2007).

System: suitable virus (e.g. encephalomyocarditis virus (EMC), vesicular stomatitis virus, Semliki forest virus)
Details: cited from earlier work

For “IFN-α 2b: interferon alpha-2b, administered at 11.54 μg protein three times a week”, which specific activity is on record?
The specific activity was 2.68×10^6 IU/mg.
